Holding throughout (format): ADME
Common to all, as to settings: recombinant enzyme

Sequences of proteins named here, by UniProt entry; tags and fusion partners are left off.
UniProt P20815, whole entry: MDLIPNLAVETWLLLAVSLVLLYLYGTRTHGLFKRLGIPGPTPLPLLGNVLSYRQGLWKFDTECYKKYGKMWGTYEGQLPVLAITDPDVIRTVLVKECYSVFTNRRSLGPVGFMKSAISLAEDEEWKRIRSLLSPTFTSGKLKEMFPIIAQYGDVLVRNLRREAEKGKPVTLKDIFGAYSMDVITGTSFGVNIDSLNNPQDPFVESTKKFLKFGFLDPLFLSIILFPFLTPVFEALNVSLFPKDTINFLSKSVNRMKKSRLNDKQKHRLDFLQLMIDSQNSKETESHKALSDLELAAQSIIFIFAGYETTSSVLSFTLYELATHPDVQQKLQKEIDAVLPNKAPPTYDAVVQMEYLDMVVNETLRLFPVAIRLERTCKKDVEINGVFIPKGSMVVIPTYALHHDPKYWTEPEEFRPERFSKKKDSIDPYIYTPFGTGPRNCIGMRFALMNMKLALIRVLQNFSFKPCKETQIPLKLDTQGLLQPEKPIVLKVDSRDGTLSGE
UniProt P24462, whole entry: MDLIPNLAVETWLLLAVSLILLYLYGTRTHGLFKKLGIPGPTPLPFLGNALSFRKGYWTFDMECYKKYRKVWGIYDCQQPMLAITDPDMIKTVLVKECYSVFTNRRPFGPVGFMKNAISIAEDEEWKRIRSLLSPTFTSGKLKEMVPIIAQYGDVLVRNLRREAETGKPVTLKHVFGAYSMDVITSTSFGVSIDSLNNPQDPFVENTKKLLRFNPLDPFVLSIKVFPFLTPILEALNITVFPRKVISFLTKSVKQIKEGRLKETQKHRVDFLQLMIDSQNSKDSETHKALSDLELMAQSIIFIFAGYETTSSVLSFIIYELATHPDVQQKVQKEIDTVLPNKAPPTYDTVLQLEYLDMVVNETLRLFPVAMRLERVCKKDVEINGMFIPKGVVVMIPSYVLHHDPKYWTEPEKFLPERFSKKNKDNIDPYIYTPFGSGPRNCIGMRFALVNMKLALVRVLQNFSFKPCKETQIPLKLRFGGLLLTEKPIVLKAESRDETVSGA

Data set [1] has as its target T1, Cytochrome P450 3A5 (Homo sapiens, UniProt P20815). The data set can be described thus: Drug metabolism assessed as recombinant CYP3A5 (unknown origin)-mediated 6beta-hydroxy budesonide metabolite formation by MS/MS analysis.
Data set [2] deals with T1, Cytochrome P450 3A5. The data set can be described thus: Drug metabolism assessed as recombinant CYP3A5 (unknown origin)-mediated 16alpha-hydroxy prednisolone metabolite formation by MS/MS analysis.
Data set [3] has as its target T1, Cytochrome P450 3A5. Nature of the data set: Drug metabolism assessed as recombinant CYP3A5 (unknown origin)-mediated 23-hydroxy budesonide metabolite formation by MS/MS analysis.
For data set [4], the target named is T1, Cytochrome P450 3A5. Nature of the data set: Drug metabolism assessed as recombinant CYP3A5 (unknown origin)-mediated delta6-budesonide metabolite formation by MS/MS analysis.
The target in data set [5] is T2, Cytochrome P450 3A7 (Homo sapiens, UniProt P24462). Nature of the data set: Drug metabolism assessed as recombinant CYP3A7 (unknown origin)-mediated 23-hydroxy budesonide metabolite formation by MS/MS analysis.
Data set [6] addresses T2, Cytochrome P450 3A7. Nature of the data set: Drug metabolism assessed as recombinant CYP3A7 (unknown origin)-mediated 6beta-hydroxy budesonide metabolite formation by MS/MS analysis.
Data set [7] concerns the target T2, Cytochrome P450 3A7. Nature of the data set: Drug metabolism assessed as recombinant CYP3A7 (unknown origin)-mediated delta6-budesonide metabolite formation by MS/MS analysis.
Data set [8] has as its target T2, Cytochrome P450 3A7. The data set can be described thus: Drug metabolism assessed as recombinant CYP3A7 (unknown origin)-mediated 16alpha-hydroxy prednisolone metabolite formation by MS/MS analysis in presence of esterase inhibitor.
The target in data set [9] is T2, Cytochrome P450 3A7. Nature of the data set: Drug metabolism assessed as recombinant CYP3A7 (unknown origin)-mediated 16alpha-hydroxy prednisolone metabolite formation by MS/MS analysis.
Data set [10] concerns the target T1, Cytochrome P450 3A5. Nature of the data set: Drug metabolism assessed as recombinant CYP3A5 (unknown origin)-mediated 16alpha-hydroxy prednisolone metabolite formation by MS/MS analysis in presence of esterase inhibitor.

Our source for the Drug metabolism values is ChEMBL document CHEMBL3525921, “Metabolic pathways of inhaled glucocorticoids by the CYP3A enzymes” (Drug Metab Dispos, 2013).

As for `CCCC1O[C@@H]2C[C@H]3[C@@H]4CCC5=CC(=O)C=C[C@]5(C)[C@H]4[C@@H](O)C[C@]3(C)[C@]2(C(=O)CO)O1` (stereo not given in full) [BUDESONIDE], the Drug metabolism entry on Cytochrome P450 3A5 [1], at Cytochrome P450 3A5 [2], on Cytochrome P450 3A5 [3], on Cytochrome P450 3A5 [4], on Cytochrome P450 3A7 [5] and at Cytochrome P450 3A7 [6] was “metabolite_detected” each time. Further, the Drug metabolism result is “metabolite_detected” on Cytochrome P450 3A7 [7], “metabolite_not_detected” at Cytochrome P450 3A7 [8], “metabolite_detected” at Cytochrome P450 3A7 [9] and “metabolite_not_detected” on Cytochrome P450 3A5 [10].
